“And” between values parts separate entries of the source, which are not always exact repeats. Equal values may be shown once.

The target in the assay is Opioid receptors; mu & kappa (Homo sapiens) (UniProt P41145+P35372). In words: Selectivity of binding affinity of human kappa opioid receptor over human mu opioid receptor. It counts as protein assay.

Turning to `CN(C(=O)Cc1ccc(Cl)c(Cl)c1)[C@H](CN1CCCC1)c1ccccc1`, the Selectivity was 1240 and 567.

Source of the values: ChEMBL document CHEMBL1141989, “Amino acid conjugates as kappa opioid receptor agonists” (Bioorg Med Chem Lett, 2005).
